Laboratory results published in article PMC10730852 (Communications Biology, 2023).

Assays:
[1] = test system: Cph001; assay: Coupled enzyme assay and Michaelis-Menten kinetics of Cph001; type: biochemical, Streptosporangium roseum; conditions: CMN IIA varied, mean ± SEM, n = 3
Protocol: The phosphorylation reaction was measured by a coupled enzyme assay as following. […] The reactions were mixed well in a final volume of 200 μL in 96-well plates. The Cph001 activity was assayed by determining the oxidation of NADH at 340 nm. The reaction buffer and enzyme concentration of the Cph reaction was followed by previous study. The 340 nm absorbance changes were detected at 30 °C for every 1 min at a time in 15 min on an EPOCH Microplate Reader (BioTek). All reactions were carried out in triplicate.
The initial velocity data were plotted against substrate concentrations and fit the Michaelis-Menten equation. The Km and Vmax values were calculated based on the Michaelis-Menten equation. GraphPad Prism was used for statistical data analysis. All reactions were carried out in triplicate.

[2] = test system: Cph; design: method as in Previous kinetic studies; conditions: ATP as a phosphate donor; ref Previous kinetic studies; cited from earlier work

N=C1NCCC([C@@H]2NC(=O)/C(=C/NC(N)=O)NC(=O)[C@H](CNC(=O)C[C@@H](N)CCCN)NC(=O)[C@H](CO)NC(=O)[C@@H](N)CNC2=O)N1 (stereo in doubt) [CMN IIA]
turnover number (kcat) of Cph001 ([1]; ATP as phosphate donor (2 mM)): 0.0105 ± 0.00083 s⁻¹ | kcat of Cph001 ([1]; saturating GTP as phosphate donor (2 mM)): 0.006 ± 0.0005 s⁻¹ | kcat value of Cph for CMN IIA [2]: 0.29 s⁻¹
